This note sets out measurements from PMC8481542.

Protein sequences, listed by entry. Tags and fused reporters are not part of them. Lines headed by an entry give the natural chain unless they say otherwise; changes in a name come on top.
UniProt Q07914: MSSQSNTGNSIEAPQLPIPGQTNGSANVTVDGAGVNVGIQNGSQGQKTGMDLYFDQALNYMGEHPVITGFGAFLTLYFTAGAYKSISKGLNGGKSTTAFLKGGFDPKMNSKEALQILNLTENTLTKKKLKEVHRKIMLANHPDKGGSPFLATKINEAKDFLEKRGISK
UniProt Q01852: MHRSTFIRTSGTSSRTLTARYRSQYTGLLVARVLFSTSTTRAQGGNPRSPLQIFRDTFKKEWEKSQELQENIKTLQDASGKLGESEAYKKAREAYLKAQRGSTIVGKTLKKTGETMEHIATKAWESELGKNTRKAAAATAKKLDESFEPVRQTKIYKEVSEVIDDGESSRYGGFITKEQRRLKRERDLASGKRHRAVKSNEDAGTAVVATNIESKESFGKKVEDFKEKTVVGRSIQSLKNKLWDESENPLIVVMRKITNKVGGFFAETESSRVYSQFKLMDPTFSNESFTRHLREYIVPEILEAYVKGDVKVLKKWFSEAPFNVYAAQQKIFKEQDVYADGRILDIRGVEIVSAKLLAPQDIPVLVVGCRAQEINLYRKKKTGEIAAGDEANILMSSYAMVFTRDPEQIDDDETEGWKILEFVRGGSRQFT

Some of the results follow.

Assay [1] concerns the target Mitochondrial import inner membrane translocase subunit TIM14 (UniProt Q07914). As to the kind of experiment: cross-link between two proteins; cross-linking mass spectrometry.
Assay [2] deals with Mitochondrial import inner membrane translocase subunit TIM44 (UniProt Q01852). The assay is described as above.

On to “Mitochondrial import inner membrane translocase subunit TIM44, Q01852”, for which the “listed as a hit” value in assay [1] is on record as “yes”. With “Mitochondrial import inner membrane translocase subunit TIM17, P39515”, the “listed as a hit” value in assay [2] was “yes”.

With “Mitochondrial import inner membrane translocase subunit TIM23, P32897”, in assay [2], the “listed as a hit” value is reported as “yes”.
